Legend:
Assay in all cases: epoxide ring opening, bromothymol blue pH assay, Hill fit
HheC [1] = target: HheC (Agrobacterium tumefaciens, UniProt Q93D82); settings: read-out: HheC / WT; 2 mM MOPS-SO4 pH 7.0, 30 °C; 100 mM epichlorohydrin
HheC [2] = target: HheC (Agrobacterium tumefaciens, UniProt Q93D82, F12Y); settings: read-out: HheC / F12Y; 2 mM MOPS-SO4 pH 7.0, 30 °C; 100 mM epichlorohydrin
HheG = HheG (Ilumatobacter coccineus, UniProt A0A6C7EF96); assay type: biochemical; settings: read-out: HheG / WT; 2 mM MOPS-SO4 pH 7.0, 22 °C; 100 mM cyclohexene oxide

`[N-]=[N+]=[N-]` was tested, and the Km (HheC [1]) was 17.3 mM, the Km (HheC [2]) was 49.6 mM and the Km (HheG) was 38.4 mM.

Reference: publication PMC11976700, “Engineering of Conserved Sequence Motif 1 Residues in Halohydrin Dehalogenase HheC Simultaneously Enhances Activity, Stability, and Enantioselectivity” (ACS Catalysis, 2025)
